## AlphaSeq binding of Ab-14 light chain variants to a spike HR2 peptide

Binding partner: SARS-CoV-2 spike HR2 peptide, sequence PDVDLGDISGINAS.

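The starting antibody came from a phage panning campaign against this peptide. This is the validation round: designs drawn from the data on random variants, tested in the same kind of assay. Several design methods are mixed in this list. Affinity was read by AlphaSeq, a pooled yeast mating assay with surface-displayed partners. Pairs that bind mate more often; barcode pairs of the diploids are counted by sequencing. Each replicate has its own calibration line, from reference interactions of the BCL2 family. Mating was done six times.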

Each scFv is VH, a 15-residue (Gly4Ser)3 linker, VL, as in the parent Ab-14, and differs from it in the CDRs of the light chain only.
VH: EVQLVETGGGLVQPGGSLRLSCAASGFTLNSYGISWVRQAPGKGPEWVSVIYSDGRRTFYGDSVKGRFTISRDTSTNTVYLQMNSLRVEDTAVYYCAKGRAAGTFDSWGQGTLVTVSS
VL: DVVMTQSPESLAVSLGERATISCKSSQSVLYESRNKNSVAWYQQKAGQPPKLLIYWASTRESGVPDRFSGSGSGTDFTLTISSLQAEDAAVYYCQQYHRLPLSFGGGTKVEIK

Changes read parent residue, position, new residue, counted from the first residue of the VL shown. This list holds designs with at most six substitutions. Scale: log10 of Kd in nM, estimated from mating counts; low values are strong binders. A mean of the replicates is given; it leaves out those without a signal. "no signal" means that the variant was in the library but no mating with the target was seen in any replicate; the authors take this as a sign of poor binding, and no number exists. A sequence that the file lists under several names has all its replicates pooled. The authors' rule: three or more of the six replicates give a measured affinity, fewer mean a poor binder. As a blank, each scFv also met three strains without target: over all light chain designs, 4% of these pairings were detected, typically at 2.64 and seldom below 1.59. Also given: how often the same scFv was detected with the empty control strains. Of ten entries with the parent sequence, four were seen in most replicates (averages 0.34 to 2.37), three in one and three in none, so single entries are noisy. A sequence measured in both rounds can read differently, since the two assays cover different ranges.

The variant S25L S26P W56E E61M showed 0.04 (6 of 6 replicates; controls 2 of 18).
The variant S25W S26E Q27W V29Q W56N H98R showed 0.01 (6 of 6 replicates; controls 2 of 18).
The variant W56S R99Y showed 1.81 (5 of 6 replicates; controls 0 of 18).
The variant S25L W56G Q96S showed -0.18 (6 of 6 replicates; controls 3 of 18).
The variant R99Y L100M showed 3.29 (1 of 6 replicates; controls 0 of 18).
The variant Q27I V29S K36T W56E showed 0.74 (6 of 6 replicates; controls 2 of 18).
The variant S25I Q96D showed 0.63 (6 of 6 replicates; controls 0 of 18).
The variant Q27W V29S W56D showed -0.35 (6 of 6 replicates; controls 0 of 18).
The variant S25V W56N T59Q E61L showed 0.60 (6 of 6 replicates; controls 1 of 18).
The variant K24L S25L S26Q V29E W56D S62E showed 0.12 (6 of 6 replicates; controls 0 of 18).
The variant S25L S26Y V29D W56Q showed 0.07 (6 of 6 replicates; controls 0 of 18).
The variant S25L S26P V29Q L30E W56E S62L showed 0.02 (6 of 6 replicates; controls 0 of 18).
The variant S25V S26Q V29Q W56E showed -0.24 (6 of 6 replicates; controls 2 of 18).
The variant Y31H E32M R34L E61V showed 1.71 (6 of 6 replicates; controls 0 of 18).
The variant S25L V29D L30P W56N showed 0.35 (6 of 6 replicates; controls 1 of 18).
The variant S25E Q27L L30T showed 2.21 (5 of 6 replicates; controls 1 of 18).
The variant S25L S38N W56Q T59Q showed -0.53 (6 of 6 replicates; controls 1 of 18).
The variant S25A V29M S33T W56N showed 0.28 (6 of 6 replicates; controls 2 of 18).
The variant S25L Y31M K36A W56D showed -0.17 (6 of 6 replicates; controls 2 of 18).
The variant S25L V29W K36S W56N Q96D showed -0.08 (6 of 6 replicates; controls 1 of 18).
The variant V29Y R34E W56E T59Q showed 0.22 (6 of 6 replicates; controls 1 of 18).
The variant K36D N37S showed 2.52 (5 of 6 replicates; controls 0 of 18).
The variant V29L S33W showed no signal (0 of 6 replicates; controls 0 of 18).
The variant S25L S26P W56S E61M showed -0.39 (6 of 6 replicates; controls 1 of 18).
The variant S25I W56K E61M P101E showed 0.69 (6 of 6 replicates; controls 0 of 18).
The variant S25Y V29F W56G Q96E showed 0.62 (6 of 6 replicates; controls 1 of 18).
The variant S25C S62P showed 1.05 (6 of 6 replicates; controls 0 of 18).
The variant L30P R34Q S58D E61S S62K Q96D showed no signal (0 of 6 replicates; controls 0 of 18).
The variant S25L V29T S38N W56N showed -0.28 (6 of 6 replicates; controls 2 of 18).
The variant S25L L30M W56E S62E showed -0.31 (6 of 6 replicates; controls 1 of 18).
The variant S28A S33D K36G P101Y S103H showed no signal (0 of 6 replicates; controls 0 of 18).
The variant S25F L30D N35L W56N showed 0.39 (6 of 6 replicates; controls 0 of 18).
The variant N35R S58L R60P S62Q Q95T Q96K showed no signal (0 of 6 replicates; controls 0 of 18).
The variant S26Y Q27W R34N W56H S62D showed 0.04 (6 of 6 replicates; controls 1 of 18).
The variant K24A S28G V29W S33G W56G S62D showed 0.87 (6 of 6 replicates; controls 0 of 18).
The variant S25V S26E W56N T59Q showed 0.23 (6 of 6 replicates; controls 1 of 18).
The variant S25F Q27P R34H W56N E61M showed -0.25 (6 of 6 replicates; controls 0 of 18).
The variant Q27P S33G H98F showed 1.77 (6 of 6 replicates; controls 0 of 18).
The variant S25L V29G S38N W56S showed -0.52 (6 of 6 replicates; controls 0 of 18).
The variant L30P Y31M T59V showed 1.43 (6 of 6 replicates; controls 1 of 18).
The variant S25I S26E Q27G V29M W56N S62V showed 0.16 (6 of 6 replicates; controls 1 of 18).
The variant S28Q V29W W56G T59H showed 0.31 (6 of 6 replicates; controls 0 of 18).
The variant K24Q V29E W56G showed -0.39 (6 of 6 replicates; controls 1 of 18).
The variant S28G V29W W56G T59F showed 0.00 (6 of 6 replicates; controls 1 of 18).
The variant K24H S25L W56N S62M showed -0.25 (6 of 6 replicates; controls 0 of 18).
The variant S26P W56D E61V showed -0.23 (6 of 6 replicates; controls 1 of 18).
The variant S25L V29E W56N T59Q S62M showed -0.12 (6 of 6 replicates; controls 0 of 18).
The variant S25V S26Q V29F W56E showed 0.55 (6 of 6 replicates; controls 2 of 18).
The variant S38D W56T S62R H98E showed 3.79 (2 of 6 replicates; controls 0 of 18).
The variant Q27V S33D Q96S showed 2.08 (5 of 6 replicates; controls 0 of 18).
The variant S25L W56G S62E showed 0.09 (12 of 12 replicates; controls 2 of 36).
The variant W56N H98S P101K showed no signal (0 of 6 replicates; controls 0 of 18).

For reference, 4 entries of the list once more:

With S25E Q27L L30T the result was 2.21 (5 of 6 replicates; controls 1 of 18).
With S25L S38N W56Q T59Q the result was -0.53 (6 of 6 replicates; controls 1 of 18).
With S25L L30M W56E S62E the result was -0.31 (6 of 6 replicates; controls 1 of 18).
With K24A S28G V29W S33G W56G S62D the result was 0.87 (6 of 6 replicates; controls 0 of 18).

Reference: Li et al. 2023, doi:10.1038/s41467-023-39022-2. File: FLAb, binding data.